The record followed here is PubChem BioAssay AID1671190 (National Center for Advancing Translational Sciences (NCATS), 2021).

By UniProt entry, the sequences of proteins in these tests, tags left out.
UniProt P18054, whole entry: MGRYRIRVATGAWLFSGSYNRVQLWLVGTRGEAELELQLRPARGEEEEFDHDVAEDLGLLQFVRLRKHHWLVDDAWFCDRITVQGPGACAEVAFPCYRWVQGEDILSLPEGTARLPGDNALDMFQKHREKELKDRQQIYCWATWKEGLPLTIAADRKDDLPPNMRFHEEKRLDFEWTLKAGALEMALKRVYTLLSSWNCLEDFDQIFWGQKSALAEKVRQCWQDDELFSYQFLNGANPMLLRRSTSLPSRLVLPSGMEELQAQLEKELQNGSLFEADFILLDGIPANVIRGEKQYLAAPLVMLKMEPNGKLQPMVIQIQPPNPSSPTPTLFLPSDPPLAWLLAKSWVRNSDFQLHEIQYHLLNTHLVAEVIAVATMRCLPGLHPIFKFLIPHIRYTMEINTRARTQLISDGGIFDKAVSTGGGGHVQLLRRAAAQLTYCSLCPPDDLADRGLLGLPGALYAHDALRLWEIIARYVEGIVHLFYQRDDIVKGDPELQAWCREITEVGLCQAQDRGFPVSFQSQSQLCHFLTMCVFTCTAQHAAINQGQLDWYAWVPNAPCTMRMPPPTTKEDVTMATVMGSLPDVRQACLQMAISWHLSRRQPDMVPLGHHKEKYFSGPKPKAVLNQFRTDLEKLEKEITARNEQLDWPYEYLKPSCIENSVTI

The entries are a selection whose mix differs from that of the whole data set. Inconclusive results are not listed. Calls of active or inactive are those of the source. The call rests on the fitted dose curve; in most records, active means well fitted inhibition curve with a large enough effect; inconclusive means small, poorly fitted or top-dose-only effect, or another doubt; inactive means no such curve, though single readings can be large or run the other way.
On the % scale 0 is the no-effect control and ±100 the full control effect; potency means the concentration at half of the fitted maximal effect.

The assay concerns the target Polyunsaturated fatty acid lipoxygenase ALOX12 (Homo sapiens) (UniProt P18054). In words: Primary qHTS assay for inhibitors of human arachidonate 12S-lipoxygenase (ALOX12): Round 2. Particulars: purified 12hLO, xylenol orange hydroperoxide absorbance; series mostly up to 108 µM; activity change, negative = inhibition: at the top concentration. From the text:
Assay Provider: Theodore R. Holman Ph.D. University of California, Santa Cruz, California Human lipoxygenase 12hLO is a member of the closely related lipoxygenase family of enzymes which catalyze the site-specific oxidation of arachidonic acid to various hormone precursor molecules and as such is a candidate for drug development in a variety of disease areas, such as cancer and inflammation. Inhibition of 12hLO activity was screened by utilizing arachidonic acid as a substrate. The extent of hydroperoxide product formation was measured by a secondary chromogenic reaction in which xylenol orange (XO, Sigma-Aldrich, cat. number 39,818-7) reacts with the ferric ions produced from the reaction between the hydroperoxide and ferrous ions. The Fe (III)-XO complex is characterized with red-shifted absorbance at 560 nm. A purified preparation of human 12hLO was supplied by Dr. Holman laboratory, University of California, Santa Cruz.
PROTOCOL TABLE SEQUENCE No. (e.g., 1, 2, 3, etc.); […] (e.g., Cells, Incubation, Reagent, etc.); VALUE; DESCRIPTION 1; Enzyme; 3 uL; 150 nM 12hLO enzyme solution dispensed in 1536-well Greiner black, clear bottom plates. 2; Compound; 23 nL; compounds and controls were added. 3; Incubate; 15 min; room temperature. 4; Substrate; 1 uL; 40 uM arachidonic acid (final concentration). 5; Incubate; 30 min; room temperature. 6; Reagent; 4 uL; Fe-XO solution was added to each well. 7; Incubation; 30 min; room temperature 8; Detector; absorbance; Read 1 at 405 nm absorbance using ViewLux (Perkin-Elmer) CCD imager. 9; Detector; absorbance; Read 2 at 573 nm absorbance using ViewLux (Perkin-Elmer) CCD imager. NOTES (numbers refer to sequence above) 1; 150 nM 12hLO (final concentration) in buffer solution (25 mM Hepes, 0.01% Triton X-100, pH 7.0) was dispensed in columns 1, 2, 5-48. Column 1 is neutral (100% activity). Buffer only was dispensed in columns 3 and 4 as no enzyme negative controls. The plates were covered with metal lids with gas-exchange holes. 2; Compounds were pin transferred via a Kalypsys Pin Tool (Wako USA) in column 5-48. Control compound was transferred in column 2, titration of nordihydroguaiaretic acid (NDGA, Sigma-Aldrich, N5023) with top concentration of 20 mM in DMSO then 1:3 dilution in duplicate. Dilution factor of 23 nL into 4 uL final assay volume. 3; Covered assay plates were incubated for 15 min at room temperature. 4; Substrate was added to start the reaction; 40 uM arachidonic acid (Sigma-Aldrich, St. Louis, MO) was dispensed throughout the plate. 6; Chromogenic detection reagent solution (divalent iron/xylenol orange, Fe-XO) was added to each well: 200 uM xylenol orange, 300 uM ferrous ammonium sulfate prepared freshly in 50 mM sulfuric acid. 8, 9; Two absorbance readouts were obtained at 405 nm and at 573 nm using a ViewLux high-throughput CCD plate imager (Perkin-Elmer). The 573 to 405 (Read 2 / Read 1) absorbance ratio was used to compute reaction progress.
Take `CC(C)(C)n1nnnc1C(c1cccc2ccccc12)N1CCC(n2c(=O)[nH]c3ccccc32)CC1` (stereo not given): the “activity change, negative = inhibition” value is inactive: -16.3%.

On to `O=c1[nH]c2ccccc2n1C1CCN(C(c2ccccc2)c2nnnn2C2CCCC2)CC1` (stereo not given), for which the “activity change, negative = inhibition” value is inactive: 4.22%. On the same count and under the same terms, in the case of `Cc1cc(N(CCCl)CCCl)ccc1C=O` it was inactive: -1.6%; in that of `c1ccc(CN2CCC(Nc3ccccc3)CC2)cc1`, inactive: 0% [at 57.4 µM]; in that of `C/C(N)=N\P(=O)(Oc1ccccc1)Oc1ccccc1`, inactive: 4.65%. As to `CN(C)C1(CNC(=O)c2cccc(C#N)c2)CCCCC1`, the “activity change, negative = inhibition” value is inactive: 4.9%. Still for that read-out and setting: in the case of `CC1C(=O)CCN(CCc2ccccc2)C1C` (stereo not given) it was inactive: -19.1%.

Consider `CC(C)(C)OC(=O)N1CCC(N(C(=O)c2ccccc2)c2ccc(Cl)cc2)CC1`, for which the “activity change, negative = inhibition” value is inactive: 0.429%. On to `O=C(NCC1(N2CCOCC2)CCCCC1)c1ccc([N+](=O)[O-])cc1`, for which the “activity change, negative = inhibition” value was inactive: -19.1%. Still for that read-out and setting: in the case of `N#Cc1ccc(C(=O)NCC2(N3CCCCC3)CCCCC2)cc1` it was inactive: -10.2%; in that of `O=c1[nH]c2ccccc2n1C1CCN(C(c2cccs2)c2nnnn2C2CCCC2)CC1` (stereo not given), inactive: -4.08%. Same read-out and setting: in the case of `O=C(O)c1cccc(Nc2c([N+](=O)[O-])cc([N+](=O)[O-])cc2[N+](=O)[O-])c1` it was inactive: -29.1%; in that of `O=C(OC1CN2CCC1CC2)C1c2ccccc2C=Cc2ccccc21` (stereo not given), inactive: 13.4%; in that of `N/C(=N\O)c1c(N)no[n+]1[O-]`, inactive: 2.73%. For the compound `Cc1cc(NC2CCN(Cc3ccccc3)CC2)ccc1Br`, the “activity change, negative = inhibition” value is inactive: -28.8%. Still for that read-out and setting: in the case of `O=C(NCC1(N2CCCCC2)CCCCC1)c1n[nH]c(=O)c2ccccc12` it was inactive: -6.12%; in that of `COc1ccc(C(=O)NCC2(N3CCOCC3)CCCCC2)cc1OC`, inactive: -3.75%; in that of `O=c1[nH]c2ccccc2n1C1CCN(C(c2cccs2)c2nnnn2C2CCCCC2)CC1` (stereo not given), inactive: -6.15%. In the case of `O=C(NCC1(N2CCOCC2)CCCCC1)c1n[nH]c(=O)c2ccccc12`, the “activity change, negative = inhibition” value was inactive: -3.81%. `O=C(NCC1(N2CCOCC2)CCCCC1)c1cc(Br)ccc1Cl`: the “activity change, negative = inhibition” value is inactive: 1.74%. The same measure, in the same setting: in the case of `CCCCn1nnnc1C(c1ccccc1)N1CCC(n2c(=O)[nH]c3ccccc32)CC1` (stereo not given) it was inactive: -7.56%. As for `CN1CCC(Nc2ccc(Cl)cc2)CC1`, the “activity change, negative = inhibition” value is inactive: 12.5%. The same measure, in the same setting: in the case of `CCC(CO)(C(=O)OC1CN2CCC1CC2)c1ccccc1` (stereo not given) it was inactive: 487%; in that of `COc1cc(C(=O)NCC2(N3CCOCC3)CCCCC2)cc(OC)c1OC`, inactive: -23.6%; in that of `COc1cc(OC)cc(C(=O)NCC2(N3CCOCC3)CCCCC2)c1`, inactive: 5.74%. Still for that read-out and setting: in the case of `COc1cccc(C(c2nnnn2C2CCCC2)N2CCC(n3c(=O)[nH]c4ccccc43)CC2)c1OC` (stereo not given) it was inactive: 1.87%. Consider `COc1cccc(C(=O)N(c2cc(C)cc(C)c2)C2CCN(C(=O)OC(C)(C)C)CC2)c1`, for which the “activity change, negative = inhibition” value was inactive: -7.17%.

`CCCOc1ccc(C(=O)NCC2(N(C)C)CCCCC2)cc1`: the activity change, negative = inhibition result is “inactive”. On the same count and under the same terms, in the case of `O=c1[nH]c2ccccc2n1C1CCN(C(c2cc3ccccc3o2)c2nnnn2C2CCCC2)CC1` (stereo not given) it was inactive: -16.7%; in that of `CC(C)(C)OC(=O)N1CCC(Nc2ccccc2)CC1`, inactive: 2.09%.

`CCCOc1ccccc1C(=O)NCC1(N(C)C)CCCCC1`: the “activity change, negative = inhibition” value was inactive: -24.8%. For the compound `CCOc1ncccc1C(=O)NCC1(N2CCOCC2)CCCCC1`, the “activity change, negative = inhibition” value was inactive: 0.141%. The same measure, in the same setting: in the case of `Cc1ccc2oc(C(=O)NCC3(N4CCCCC4)CCCCC3)cc(=O)c2c1` it was inactive: -44.8%; in that of `Cn1c(=O)[nH]cc(N(CCCl)CCCl)c1=O`, inactive: -32.4%. The same measure, in the same setting: in the case of `CC1CN(CCc2ccccc2)C(C)CC1=O` (stereo not given) it was inactive: 0.161%. The same measure, in the same setting: in the case of `CN(C)c1ccc(C(=O)NCC2(N3CCCCC3)CCCCC2)cc1` it was inactive: 0%. On to `O=C(NCC1(N2CCCCC2)CCCCC1)c1ccco1`, for which the “activity change, negative = inhibition” value was inactive: 9.07%. On to `Cc1ccccc1C(=O)NCC1(N(C)C)CCCCC1`, for which the “activity change, negative = inhibition” value is inactive: -10.7%. As for `COc1ccc(C(c2nnnn2C2CCCCC2)N2CCC(n3c(=O)[nH]c4ccccc43)CC2)cc1` (stereo not given), the “activity change, negative = inhibition” value was inactive: -67.1%. Same read-out and setting: in the case of `Cn1cc(C(=O)NCC2(N3CCOCC3)CCCCC2)c2ccccc21` it was inactive: -11.9%. The same measure, in the same setting: in the case of `Cc1ccccc1NC1(C#N)CCN(Cc2ccccc2)CC1` it was inactive: -4.79%; in that of `Cc1ccc(NC2(C#N)CCN(Cc3ccccc3)CC2)cc1`, inactive: 7.02%; in that of `Cc1ccc(C(=O)NCC2(N3CCCCC3)CCCCC2)o1`, inactive: 12.3%. On the same count and under the same terms, in the case of `O=c1[nH]c2ccccc2n1C1CCN(C(c2ccnc3ccccc23)c2nnnn2C2CCCCC2)CC1` (stereo not given) it was inactive: -14.8%; in that of `COc1cc(OC)cc(C(=O)NCC2(N3CCCCC3)CCCCC2)c1`, inactive: -11.2%. For `CCC(c1nnnn1C1CCCCC1)N1CCC(n2c(=O)[nH]c3ccccc32)CC1` (stereo not given), the “activity change, negative = inhibition” value is inactive: 3.5%.

Take `CC(=O)N(c1ccccc1)C1CCNCC1`: the “activity change, negative = inhibition” value was inactive: 17.4%.

In the case of `CN(C)C1(CNC(=O)c2ccc(C(C)(C)C)cc2)CCCCC1`, the “activity change, negative = inhibition” value was inactive: -23.9%. Consider `COc1cccc(C(c2nnnn2C2CCCCC2)N2CCC(n3c(=O)[nH]c4ccccc43)CC2)c1OC` (stereo not given), for which the “activity change, negative = inhibition” value is inactive: 5.2%. Take `O=c1[nH]c2ccccc2n1C1CCN(C(c2cccc3ccccc23)c2nnnn2C2CCCC2)CC1` (stereo not given): the “activity change, negative = inhibition” value is inactive: -6.95%. With `O=C(NCC1(N2CCCCC2)CCCCC1)c1c[nH]c2ccccc12`, the “activity change, negative = inhibition” value was inactive: 15.5%. On the same count and under the same terms, in the case of `COc1cc(C(=O)NCC2(N(C)C)CCCCC2)ccc1OC(F)F` it was inactive: 2.46%. Turning to `CCOC(=O)C(=O)CBr`, the Potency was active: 4.32 µM. On to `CCOC(=O)N1CCC(Nc2ccc(F)cc2)CC1`, for which the “activity change, negative = inhibition” value was inactive: 5.57%. Take `O=C(NCC1(N2CCCCC2)CCCCC1)c1ccc(F)cc1`: the “activity change, negative = inhibition” value is inactive: -39.9%.
